Test results reported in patent publication US20230157952A1, “METHOD FOR IMPROVING THE STABILITY OF A PHARMACEUTICAL COMPOSITION COMPRISING A HIGH PENETRATION DRUG, AND THE PHARMACEUTICAL COMPOSITION OBTAINED THEREFROM” (Techfields Inc., priority 2020, published 2023).

Key:
[1] = Stability of the pure HPDs (dry solid) at 25° C./RH 60%; format: physicochemical; settings: pure HPD, 25° C./RH 60%, listed as A-1-1
[2] = Effect of pH value on the stability of the solution (purity); format: physicochemical; settings: 25° C.
[3] = Effect of concentration on the stability of the solution (purity over time); settings: in water at 25° C.

Work on `CCN(CC)CCOC(=O)[C@H](C)c1ccc2cc(OC)ccc2c1.Cl` (racemic) [2-(diethylamino)ethyl (R,S)-2-(6-methoxy-2-naphthyl)propionate•HCl] yielded a Purity ([1]; 12 month) of 98.5 ± 0.2, a Purity ([1]; 18 month) of 98.3 ± 0.2 and a Purity ([1]; 24 month) of 98.2 ± 0.2. The “Purity(%) from day 0-28” value ([2]; day 0, pH 1.0, 7% solution in water) was 98.5 ± 0.3%, the “Purity(%) from day 0-28” value ([2]; day 0, pH 2.0, 7% solution in water) was 98.6 ± 0.2% and the “Purity(%) from day 0-28” value ([2]; day 0, pH 3.0, 7% solution in water) was 98.6 ± 0.2%. The “Purity(%) from day 0-28” value ([2]; day 0, pH 3.7, 7% solution in water) was 98.8 ± 0.3%, the “Purity(%) from day 0-28” value ([2]; day 0, pH 4.0, 7% solution in water) was 98.8 ± 0.2% and the “Purity(%) from day 0-28” value ([2]; day 0, pH 4.3, 7% solution in water) was 98.8 ± 0.3%. The “Purity(%) from day 0-28” value ([2]; day 0, pH 4.6, 7% solution in water) was 98.8 ± 0.2%, the “Purity(%) from day 0-28” value ([2]; day 0, pH 5.0, 7% solution in water) was 98.7 ± 0.3% and the “Purity(%) from day 0-28” value ([2]; day 0, pH 6.0, 7% solution in water) was 98.6 ± 0.2%. The “Purity(%) from day 0-28” value ([2]; day 0, pH 7.0, 7% solution in water) was 98.5 ± 0.3%, the “Purity(%) from day 0-28” value ([2]; day 0, pH 8.0, 7% solution in water) was 98.3 ± 0.3% and the “Purity(%) from day 0-28” value ([2]; day 28, pH 4.0, 7% solution in water) was 97.8 ± 0.2%. The “Purity(%) from day 0-28” value ([2]; day 28, pH 4.3, 7% solution in water) was 97.9 ± 0.2%, the “Purity(%) from day 0-28” value ([2]; day 28, pH 4.6, 7% solution in water) was 97.9 ± 0.1% and the “Purity at hr 0” value ([3]; 0.01 wt %) was 98.3%. For the same molecule, the “Purity at Day 3” value ([3]; 0.1 wt %) was 97.9%, the “Purity at hr 0” value ([3]; 0.1 wt %) was 98.6% and the “Purity at hr 24” value ([3]; 0.1 wt %) was 98.4%. The “Purity at Day 3” value ([3]; 1 wt %) was 98.2%, the “Purity at Day 7” value ([3]; 1 wt %) was 97.8% and the “Purity at hr 0” value ([3]; 1 wt %) was 98.6%. The “Purity at hr 24” value ([3]; 1 wt %) was 98.7%, the “Purity at Day 3” value ([3]; 3 wt %) was 98.5% and the “Purity at Day 7” value ([3]; 3 wt %) was 98.3%. For the same molecule, the “Purity at Day 14” value ([3]; 3 wt %) was 97.9%, the “Purity at hr 0” value ([3]; 3 wt %) was 98.8% and the “Purity at hr 24” value ([3]; 3 wt %) was 98.7%. For the same molecule, the “Purity at Day 3” value ([3]; 5 wt %) was 98.7%, the “Purity at Day 7” value ([3]; 5 wt %) was 98.5% and the “Purity at Day 14” value ([3]; 5 wt %) was 98.2%. For the same molecule, the “Purity at Day 21” value ([3]; 5 wt %) was 97.7%, the “Purity at hr 0” value ([3]; 5 wt %) was 98.9% and the “Purity at hr 24” value ([3]; 5 wt %) was 98.8%. The “Purity at Day 3” value ([3]; 8 wt %) was 98.8%, the “Purity at Day 7” value ([3]; 8 wt %) was 98.6% and the “Purity at Day 14” value ([3]; 8 wt %) was 98.2%. The “Purity at hr 0” value ([3]; 8 wt %) was 98.9%, the “Purity at hr 24” value ([3]; 8 wt %) was 98.8% and the “Purity at Day 3” value ([3]; 10 wt %) was 98.8%. The “Purity at Day 7” value ([3]; 10 wt %) was 98.6%, the “Purity at Day 14” value ([3]; 10 wt %) was 98.3% and the “Purity at hr 0” value ([3]; 10 wt %) was 98.8%. For the same molecule, the “Purity at hr 24” value ([3]; 10 wt %) was 98.8%, the “Purity at Day 3” value ([3]; 15 wt %) was 98.8% and the “Purity at Day 7” value ([3]; 15 wt %) was 98.7%. The “Purity at Day 14” value ([3]; 15 wt %) was 98.3%, the “Purity at hr 0” value ([3]; 15 wt %) was 98.8% and the “Purity at hr 24” value ([3]; 15 wt %) was 98.8%. The “Purity at Day 3” value ([3]; 20 wt %) was 98.8%, the “Purity at Day 7” value ([3]; 20 wt %) was 98.7% and the “Purity at Day 14” value ([3]; 20 wt %) was 98.3%. For the same molecule, the “Purity at hr 0” value ([3]; 20 wt %) was 98.8% and the “Purity at hr 24” value ([3]; 20 wt %) was 98.8%.
